Source: PubChem (Broad Institute)
F508del corr: F508del CFTR correction, initial screen, CFBE line, single point. CFBE cells, YFP halide quenching; stimulated with forskolin plus potentiator P3; % fluorescence drop versus neutral controls. activity (quench increase), % at 7.58 µM. hit rate 0.36% among 350,000;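 active = mean added fluorescence quench of at least 8% versus neutral control, with both replicates also reaching 8%; inconclusive = only one of the mean or replicate conditions met; inactive = mean below 8% and not both replicates reaching 8%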;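 also: cells transiently co-express mutant CFTR-F508del with the halide-sensitive YFP; corrector assay measuring rescue of mutant channel to the surface after 24 h compound exposure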
miR122 inh: miR-122 Renilla sensor signal increase in Huh7, primary screen, miR-122 inhibitor project, cell-based, single point, plate reader; Huh7 miR-122 Renilla luciferase sensor, 48 h; neutral wells = 0, positive control = 100; activation (reporter increase), % at 12.5 µM; hit rate 0.3% among 340,000;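 active = mean replicate activation score at least 90 and every replicate individually at or above 90; inconclusive = only one of the two criteria met; inactive = neither criterion met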;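 also: higher luciferase means less miR-122 activity so hits act as miR-122 inhibitors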
PglD inh: C. jejuni PglD acetyltransferase inhibitors, primary screen, biochemical, DTNB colorimetric, single point; purified PglD enzyme, DTNB colorimetric CoA detection; inhibition, % at 12.5 µM; hit rate 0.098% among 360,000; AID 602405, 2012; in the data active = inhibition above about 16%, passing the limit was not always enough; inconclusive = no clear call, values can overlap the other calls
EWS-Fli inh: EWS/Fli-driven NR0B1 reporter inhibitors, primary screen, A673 cells, NR0B1 luciferase, luminescence, MLPCN library | viability-normalised | inhibition, % at 12.6 µM | hit rate 0.67% among 350,000 | AID 651661, 2012;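 active = mean inhibition of at least 50% after viability correction, with every replicate also passing that limit; inconclusive = mean reaches 50% but only one of two replicates passes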;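 also: firefly luciferase signal divided by Alamar Blue viability fluorescence both relative to DMSO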
Yeast UUG start: modulators of start codon recognition fidelity in yeast; S. cerevisiae UUG-firefly luciferase reporter, luminescence/redox ratio; activity score, % at 18.7 µM; hit rate 0.13% among 350,000; AID 602363;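 active = replicate mean at a twofold rise or more, about +100% in these data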;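 note: firefly luciferase made from a UUG start codon reports start codon fidelity; reporter light over untreated wells divided by growth signal over untreated wells; some hits fall short of that in this replicate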
LGR2 inh: inhibitors of bursicon-induced LGR2 CRE-luciferase signal, primary screen, cell-based, HEK293, CRE-luciferase reporter, bursicon stimulation | bursicon-stimulated, 4 h | inhibition, % at 9.99 µM | hit rate 0.35% among 380,000 | AID 720647, 2013;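 active = drop in luminescence signal, shown as inhibition above about 50% in the replicate tests, limit read from the data, passing the limit was not always enough; inconclusive = probably only some replicates passing the limit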;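 also: agonist challenge used bursicon conditioned medium at about half maximal strength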
DNA binder FP: DNA binders by acridine orange displacement, dose response, counter-screen for EWS/Fli inhibitor project, biochemical, fluorescence polarization, cherry-pick; shares compounds with EWS-Fli inh; hit rate 2% among 640; AC35, µM (titrated, usually from 68 µM); salmon sperm DNA acridine orange fluorescence polarization;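 active = fitted curve reaches a 35% signal fall AC35 below twice the sample's top valid tested dose, actives reach about 48 µM in these data; inactive = the rest, including activity in the rising direction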;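 also: lower polarization ratio signals compound binding to DNA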
Each line names hits and unclear results; the compound was inactive in the other large screens (follow-up assays come after a bar, where they were run); [ ] = dose if it differs, or a comment. The list is not random: actives were taken first. Their share in the collection is about 1.3%.

COc1ccc(C(CCNCc2ccc(OC(C)C)cc2)C(C)C)cc1 (configuration not stated)	EWS-Fli inh 70 | DNA binder FP inactive
O=C(NCCc1c[nH]c2ccccc12)C(=O)NCC1OCCN1S(=O)(=O)c1ccc(Cl)cc1 (configuration not stated)	none (no result: LGR2 inh)
CN1C(=O)c2cc(NC(=O)c3ccc(F)c(F)c3)ccc2OC[C@H]2O[C@H](CC(=O)N[C@H]3CCN(Cc4ccccc4)C3)CC[C@H]21	none (no result: F508del corr, miR122 inh, Yeast UUG start)
O=c1oc2ccccc2cc1-c1ccc(O)cc1	none (no result: F508del corr, miR122 inh, PglD inh, Yeast UUG start, LGR2 inh)
Nc1ccc(-c2cc3ccccc3oc2=O)cc1	EWS-Fli inh 79 | DNA binder FP inactive
COC(=O)CC1(C(=O)OC)Oc2ccc(Br)cc2C(=O)N1c1cccc(Cl)c1Cl (configuration not stated)	EWS-Fli inh 64 (no result: miR122 inh, PglD inh, Yeast UUG start) | DNA binder FP inactive
C[C@@H]1CN([C@H](C)CO)C(=O)c2cccc(NC(=O)Nc3ccc(F)cc3)c2O[C@H]1CN(C)S(=O)(=O)c1ccccc1	none
CC(OC(=O)c1cccc(-n2cnnn2)c1)C(=O)Nc1ccc(N(C)C)cc1 (configuration not stated)	none
Cc1ccc(C(C)C)c(OCc2ccc(C(=O)N/N=C/c3ccc(O)cc3O)cc2)c1	EWS-Fli inh 63 (no result: F508del corr, miR122 inh, PglD inh, Yeast UUG start, LGR2 inh) | DNA binder FP inactive
Cc1ccc(C(C)C)c(OCc2ccc(C(=O)N/N=C/c3ccc(C(=O)O)cc3)cc2)c1	none (no result: miR122 inh, PglD inh, Yeast UUG start)
C[C@H](CO)N1C[C@H](C)[C@H](CN(C)C(=O)C2CC2)Oc2cc(C3=CCCC3)ccc2S1(=O)=O	none (no result: PglD inh, Yeast UUG start)
Cc1ccc2c(=O)n3c(nc2c1)C(Cc1ccc(O)cc1)NC(=O)c1cc2ccccc2cc1-3 (configuration not stated)	EWS-Fli inh 53 | DNA binder FP inactive
O=C1NC(Cc2ccc(O)cc2)c2nc3cc(F)ccc3c(=O)n2-c2cc3ccccc3cc21 (configuration not stated)	EWS-Fli inh inconclusive
CCCCNC(=O)CCCCCn1c(=O)[nH]c2cc(OC)c(OC)cc2c1=O	none (no result: F508del corr, EWS-Fli inh, LGR2 inh)
Brc1ccc(CSc2nnc(-c3ccco3)o2)cc1	EWS-Fli inh 82 (no result: F508del corr, miR122 inh, PglD inh, Yeast UUG start) | DNA binder FP inactive
c1ccc(CSc2nnc(-c3ccco3)o2)cc1	none
COc1ccc(OC)c(NC(=O)C2(C)CCN2Cc2cccc(OC)c2F)c1 (configuration not stated)	none
COc1cccc(CN2CCC2(C)C(=O)Nc2cccc3cccnc23)c1F (configuration not stated)	EWS-Fli inh 59 | DNA binder FP inactive
Nc1nc(N)c2c(ccc3nccc32)[nH]1	EWS-Fli inh 56 (no result: miR122 inh, PglD inh) | DNA binder FP inactive
COc1cccc(CN2CCN(C(=O)c3ccco3)CC2)c1	none (no result: miR122 inh)
C[C@@H]1CN([C@@H](C)CO)C(=O)c2cc(NS(=O)(=O)c3ccc(Cl)cc3)ccc2O[C@@H]1CN(C)Cc1ccc(C(=O)Nc2ccccc2N)cc1	EWS-Fli inh 53 | DNA binder FP inactive
C[C@H](CO)N1C[C@H](C)[C@H](CN(C)Cc2ccc(C(=O)Nc3ccccc3N)cc2)Oc2ccc(NS(=O)(=O)c3cccs3)cc2C1=O	EWS-Fli inh 54 | DNA binder FP inactive
C[C@@H]1CCCCO[C@@H](CN(C)Cc2ccc(C(=O)Nc3ccccc3N)cc2)[C@@H](C)CN([C@H](C)CO)C(=O)c2cc(NS(=O)(=O)c3ccccc3)ccc2O1	none (no result: miR122 inh, PglD inh, Yeast UUG start)
C[C@H]1CN([C@@H](C)CO)C(=O)c2cc(NS(=O)(=O)c3cccs3)ccc2O[C@H]1CN(C)Cc1ccc(C(=O)Nc2ccccc2N)cc1	none (no result: miR122 inh, PglD inh, Yeast UUG start)
C[C@@H]1CN([C@@H](C)CO)C(=O)c2cc(NC(=O)Nc3ccccc3)ccc2O[C@@H]1CN(C)Cc1ccc(C(=O)Nc2ccccc2N)cc1	miR122 inh 170[16.7 µM], EWS-Fli inh 58 | DNA binder FP inactive
